In patent publication US20200157156A1, “GRATELOUPIA CHIANGII-DERIVED LECTIN AND LECTIN GENE CODING FOR THE SAME” (priority 2018, published 2020):

Assay: Cytotoxicity (cell viability, MTT method)
Description: The antiviral effect was determined through cell viability, and the like using a virus-induced cytopathic effect (CPE) inhibition method and an MTT method.

Row | Substance | Toxicity CC50 [mg/L]
1 | dextran sulfate 8000 | >100
2 | Concanavalin A | 29.29
